One assay addresses T1, AVP-V1 sites (Rattus norvegicus, UniProt P30560).
T1 construct: crude membrane preparation of male rat liver (AVP-V1 sites); from tissue; host or cells: male rat liver, crude membranes
As to the kind of experiment: [^3 H]AVP binding to crude membrane preparation of male rat liver (AVP-V1 sites). To be noted: read-out: Receptor Binding Results IC50 (nM) [^3 H]-AVP-V1. How it is done: (§1) Nonspecific binding (5-10% of the total binding) was determined using 10 μM unlabeled AVP, and the binding reaction was terminated by filtration as described above for the [^3 H]OT binding assay.

By UniProt entry, the sequences of proteins in these tests, tags left out.
UniProt P30560, whole entry: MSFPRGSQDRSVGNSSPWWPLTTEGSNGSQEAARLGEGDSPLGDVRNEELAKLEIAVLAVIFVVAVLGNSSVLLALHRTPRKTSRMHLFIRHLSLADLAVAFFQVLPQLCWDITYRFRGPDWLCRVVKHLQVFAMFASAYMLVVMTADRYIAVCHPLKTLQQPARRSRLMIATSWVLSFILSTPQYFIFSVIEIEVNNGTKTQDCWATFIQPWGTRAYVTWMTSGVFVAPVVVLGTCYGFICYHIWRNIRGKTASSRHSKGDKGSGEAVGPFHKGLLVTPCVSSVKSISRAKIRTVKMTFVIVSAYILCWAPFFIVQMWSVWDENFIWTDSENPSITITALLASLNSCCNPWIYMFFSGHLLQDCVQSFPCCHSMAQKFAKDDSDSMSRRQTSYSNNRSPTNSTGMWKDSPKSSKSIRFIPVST
UniProt Q00788, whole entry: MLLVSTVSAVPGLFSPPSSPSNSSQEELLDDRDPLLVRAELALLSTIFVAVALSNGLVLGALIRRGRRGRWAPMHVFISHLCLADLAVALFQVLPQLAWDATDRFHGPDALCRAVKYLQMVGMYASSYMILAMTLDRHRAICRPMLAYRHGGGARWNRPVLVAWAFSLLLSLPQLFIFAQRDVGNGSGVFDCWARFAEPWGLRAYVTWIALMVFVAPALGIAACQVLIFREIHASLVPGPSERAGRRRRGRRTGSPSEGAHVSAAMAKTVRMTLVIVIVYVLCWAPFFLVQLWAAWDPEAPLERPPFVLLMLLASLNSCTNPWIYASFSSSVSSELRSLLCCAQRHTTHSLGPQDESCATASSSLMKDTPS

The target in a further assay is T2, AVP-V2 sites (Rattus norvegicus, UniProt Q00788).
T2 construct: male rat liver (AVP-V1 sites) or kidney medulla (AVP-V2 sites); from tissue; host or cells: male rat kidney medulla, crude membranes
As to the kind of experiment: [^3 H]AVP binding to crude membrane preparation of male rat kidney medulla (AVP-V2 sites). To be noted: rat kidney medulla membranes, 2 nM [^3 H]AVP; read-out: Receptor Binding Results IC50 (nM) [^3 H]-AVP-V2. The procedure: as §1

Bounds are passed on as bounds.

Consider “C-[D,L-3-(3-(7-Methyl)indolyl)alanyl-L-isoleucyl-D-pipecolyl-L-pipecolyl-D- histidyl-L-prolyl] [Example 155]”, for which the IC50 (commonly the point on the concentration scale where inhibition reaches its midpoint) on AVP-V1 sites amounted to 10000 nM.

As for “c-[D,L-3-(3-(1-Methyl)indolyl)alanyl-L-isoleucyl-D-pipecolyl-L-pipecolyl-D- histidyl-L-prolyl] [Example 153]”, at AVP-V1 sites, the IC50 was 10000 nM.

On to “c-[D-Phenylalanyl-L-isoleucinyl-D-pipecolyl-D-piperazin-2-yl(4-Cbz)-L-(BOM)histidyl-L-prolyl] [Example 93]”, for which the IC50 on AVP-V1 sites and on AVP-V2 sites was above 10000 nM each time.

For the origin of these results see patent publication US5225528A, “Cyclic hexapeptide oxytocin antagonists” (priority 1990, dated 1993).
